From patent US11858993B2, “Multi-specific antibodies with affinity for human A33 antigen and DOTA metal complex and uses thereof” (Memorial Sloan Kettering Cancer Center, priority 2015, dated 2024)

Key:
[1] = tested on: kidney, bone marrow, liver, and spleen; experiment: Toxicity: weight, appearance and anatomic pathology after PRIT; type: in vivo, mice
Description: For dual-cycle PRIT given at 10 and 17 days post tumor inoculation, there is marked response at all dose levels with complete responses observed in a dose dependent manner. […] Toxicity was determined by monitoring weight and overall appearance at least three times per week, as well as histopathologic assessment of liver, kidney, spleen and bone marrow by MSKCC Lab of Comparative Pathology.
For 3/3 mice, the kidney, bone marrow, and liver were normal.

SW1222 tumor = experiment: ^177Lu-DOTA-Bn dose titration, tumor uptake and saturation during PRIT; type: in vivo, mice; settings: PRIT+33.3 MBq ^177Lu-DOTA-Bn
Description: FIGS. 4A-4D show exemplary tumor uptake of ^177Lu-DOTA-Bn at 24 hours post injection as a function of radioactivity in the treatment of mice bearing a human colon cancer xenograft (SW1222); (FIG. 4A) uptake of amounts of ^177Lu-DOTA-Bn in various tissues. (FIG. 4B) Uptake of amounts of ^177Lu-DOTA-Bn in SW1222 tumors; (FIG. 4C) activity of ^177Lu-DOTA-Bn in SW1222 tumors and kidneys 24 hours post injection per amount of injected ^177Lu-DOTA-Bn; (FIG. 4D) pmoles of ^177Lu-DOTA-Bn binding in the tumor 24 hours post injection per amount of injected ^177Lu-DOTA-Bn. Saturation was achieved after approximately 40 MBq of injected activity.
As described herein, the present inventors provide an improved multi-step PRIT method in immunocompromised mice bearing s.c. A33-positive human colorectal tumors (SW1222) using a bispecific antibody termed huA33-C825. Such methodology includes i.v. injection of various doses of huA33-C825 and a dextran-based CA, followed with injection of ^177Lu-DOTA-Bn theranostic (i.e., diagnostic and therapeutic) hapten for simultaneous scintigraphic imaging and radioimmunotherapy. […]

[2] = tested on: A33-positive SW1222 xenografts; experiment: Dual-cycle PRIT therapy study
[3] = two cycles of PRIT+11.1 MBq, five days following treatment
[4] = two cycles of PRIT+55.5 MBq, seven to nine weeks following treatment

For “huA33-C825: bispecific antibody: humanized A33 IgG1 with murine C825 anti-DOTA-Bn scFv linked to the light chain C-terminus”, the “mice with liver extramedullary hematopoiesis” value [1, 3] was 1/3, the “mice with normal kidney and bone marrow” value [1, 3] was 3/3 and the “mice with spleen (white pulp) follicular lymphoid hyperplasia” value [1, 3] was 1/3. The “mice with normal kidney, bone marrow, and liver” value [1, 4] was 3/3, the “mice with spleen (white pulp) follicular lymphoid hyperplasia” value [1, 4] was 1/3 and the “estimated peak tumor uptake” value (SW1222 tumor) was 7 % ID/g. For the same substance, the “tumor size at time of sacrifice (single mouse)” value ([2]; 2 cycles of PRIT+33.3 MBq (total 66.6 MBq)) was less than 10 mm^3, the estimated tumor dose ([2]; 2 cycles of PRIT+33.3 MBq ^177Lu-DOTA-Bn (total 66.6 MBq)) was 3600-4400 cGy and the estimated tumor dose ([2]; two cycles of PRIT+11.1 MBq ^177Lu-DOTA-Bn (total 22.2 MBq)) was 1460 cGy. It also gave an estimated tumor dose ([2]; two cycles of PRIT+55.5 mCi ^177Lu-DOTA-Bn (total 111.0 MBq), based on peak tumor uptake of 3% ID/g) of 2580 cGy.
